Test results: patent US20250109201A1 (AGENUS, published 2025)

Chains of the proteins cited; added tags and fusions are not shown. Chains listed by the source or under a name are the forms on record and can include a tag or linker. Residues count along the entry.
UniProt Q8N423, 22-458 limits assumed: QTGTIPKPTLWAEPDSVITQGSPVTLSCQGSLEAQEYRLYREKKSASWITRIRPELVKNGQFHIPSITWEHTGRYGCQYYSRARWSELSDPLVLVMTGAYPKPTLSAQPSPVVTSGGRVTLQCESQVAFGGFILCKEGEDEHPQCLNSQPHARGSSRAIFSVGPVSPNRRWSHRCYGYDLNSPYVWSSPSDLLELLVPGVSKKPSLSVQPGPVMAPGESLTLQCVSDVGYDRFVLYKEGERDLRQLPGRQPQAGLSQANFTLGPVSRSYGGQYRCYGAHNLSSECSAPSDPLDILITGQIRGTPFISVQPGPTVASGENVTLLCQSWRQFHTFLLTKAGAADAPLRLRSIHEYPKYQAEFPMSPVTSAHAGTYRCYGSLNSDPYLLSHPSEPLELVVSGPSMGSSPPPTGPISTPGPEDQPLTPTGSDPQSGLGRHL
UniProt Q8NHL6, 24-458: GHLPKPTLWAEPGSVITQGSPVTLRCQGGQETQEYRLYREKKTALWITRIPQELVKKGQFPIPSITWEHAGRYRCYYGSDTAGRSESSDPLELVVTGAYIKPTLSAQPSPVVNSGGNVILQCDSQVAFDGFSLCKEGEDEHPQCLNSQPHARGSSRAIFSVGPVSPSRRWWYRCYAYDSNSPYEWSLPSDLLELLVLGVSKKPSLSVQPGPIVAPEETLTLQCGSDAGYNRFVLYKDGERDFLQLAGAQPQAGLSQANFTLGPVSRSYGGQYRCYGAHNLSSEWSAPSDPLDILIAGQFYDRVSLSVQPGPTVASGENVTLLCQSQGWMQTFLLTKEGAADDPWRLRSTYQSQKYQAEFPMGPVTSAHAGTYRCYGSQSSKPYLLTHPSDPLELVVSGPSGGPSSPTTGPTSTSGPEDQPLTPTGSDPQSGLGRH
ECD-His tagged human ILT2 haplotype PE02, UniProt Q8NHL6, other isoform, or with tags, fused parts or gaps: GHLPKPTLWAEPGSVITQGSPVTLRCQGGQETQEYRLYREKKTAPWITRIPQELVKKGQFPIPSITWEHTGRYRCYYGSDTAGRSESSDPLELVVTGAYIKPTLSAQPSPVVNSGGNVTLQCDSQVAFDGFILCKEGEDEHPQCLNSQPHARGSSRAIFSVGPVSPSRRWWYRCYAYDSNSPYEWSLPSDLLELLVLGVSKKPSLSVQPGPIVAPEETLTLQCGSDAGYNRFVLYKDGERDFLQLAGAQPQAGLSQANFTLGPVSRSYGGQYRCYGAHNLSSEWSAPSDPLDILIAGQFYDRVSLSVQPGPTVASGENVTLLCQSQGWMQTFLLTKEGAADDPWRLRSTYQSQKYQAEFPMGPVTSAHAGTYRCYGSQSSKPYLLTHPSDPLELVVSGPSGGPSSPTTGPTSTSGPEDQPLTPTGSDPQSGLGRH
ECD-His tagged human ILT2 haplotype PE03, UniProt Q8NHL6, other isoform, or with tags, fused parts or gaps: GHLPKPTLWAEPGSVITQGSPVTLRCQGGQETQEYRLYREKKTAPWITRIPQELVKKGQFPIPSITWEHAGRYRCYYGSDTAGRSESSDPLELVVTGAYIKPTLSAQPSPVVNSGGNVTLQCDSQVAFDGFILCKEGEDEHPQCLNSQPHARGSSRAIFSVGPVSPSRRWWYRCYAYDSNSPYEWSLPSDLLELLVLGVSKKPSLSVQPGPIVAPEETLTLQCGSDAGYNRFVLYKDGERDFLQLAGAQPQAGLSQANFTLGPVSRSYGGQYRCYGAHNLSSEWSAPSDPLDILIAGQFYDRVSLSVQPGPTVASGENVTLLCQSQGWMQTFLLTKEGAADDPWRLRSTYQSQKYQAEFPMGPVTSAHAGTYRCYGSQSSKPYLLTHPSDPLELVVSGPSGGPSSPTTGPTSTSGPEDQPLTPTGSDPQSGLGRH
UniProt Q8NHL6, 24-482 limits assumed: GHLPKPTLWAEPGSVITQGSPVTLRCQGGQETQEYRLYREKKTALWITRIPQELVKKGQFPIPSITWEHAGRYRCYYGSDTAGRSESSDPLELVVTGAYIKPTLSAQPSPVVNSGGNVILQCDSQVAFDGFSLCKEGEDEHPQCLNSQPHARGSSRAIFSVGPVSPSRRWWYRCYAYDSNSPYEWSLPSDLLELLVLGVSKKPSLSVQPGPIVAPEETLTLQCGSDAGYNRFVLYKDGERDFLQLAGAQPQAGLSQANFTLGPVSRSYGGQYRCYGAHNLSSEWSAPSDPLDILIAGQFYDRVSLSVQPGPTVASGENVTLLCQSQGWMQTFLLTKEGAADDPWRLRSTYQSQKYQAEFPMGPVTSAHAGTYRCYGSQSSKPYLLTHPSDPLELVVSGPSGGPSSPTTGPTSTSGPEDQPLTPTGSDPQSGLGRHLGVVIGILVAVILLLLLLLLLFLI
ECD-His tagged African green monkey (AGM) ILT2 orthologue protein, one chain, as listed by the source: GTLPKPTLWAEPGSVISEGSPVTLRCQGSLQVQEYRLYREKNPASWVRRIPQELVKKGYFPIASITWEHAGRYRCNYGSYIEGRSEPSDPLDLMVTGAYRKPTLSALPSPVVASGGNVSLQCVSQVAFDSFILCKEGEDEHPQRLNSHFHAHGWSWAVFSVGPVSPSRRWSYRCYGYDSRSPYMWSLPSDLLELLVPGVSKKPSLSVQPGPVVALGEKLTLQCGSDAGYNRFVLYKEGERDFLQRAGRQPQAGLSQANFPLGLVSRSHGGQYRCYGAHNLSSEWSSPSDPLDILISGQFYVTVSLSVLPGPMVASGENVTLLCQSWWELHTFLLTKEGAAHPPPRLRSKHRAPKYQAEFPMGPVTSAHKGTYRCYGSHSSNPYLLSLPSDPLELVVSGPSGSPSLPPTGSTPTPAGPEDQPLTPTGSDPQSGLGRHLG

Tests used:
[1] = molecular target: T1, recombinant human LILRB2/ILT4 (R&D Systems 8429-T4-050) (human, UniProt Q8N423, in part); assay: SPR
T1 construct: Bought
Method: (§1) Briefly, SPR experiments were performed using a Biacore T200 instrument, and the association rate (Kₐ), dissociation rate (Kd), and dissociation constant (KD) were calculated from each experiment using a 1:1 binding model with Biacore™ T200 Evaluation Software. Capture of antibodies from the Human Fab Capture kit (28958325, GE Healthcare) to the Series S CM5 sensor chip (29149603, GE Healthcare) was performed using the immobilization wizard for amine coupling from the Biacore™ control panel and following the manufacturer's recommendations included with the kit.

[2] = molecular target: T2, ECD-His tagged African green monkey (AGM) ILT2 orthologue protein (African green monkey); assay: SPR
T2 construct: also called African Green Monkey ILT2 ECD; not shown: His tag

[3] = molecular target: T3, ECD-His tagged mouse PirB protein (R&D Systems, 2754PB050) (mouse, UniProt P97484 25-642); assay: SPR
T3 construct: extracellular domain; Bought; not shown: His tag
T3 sequence (looked up): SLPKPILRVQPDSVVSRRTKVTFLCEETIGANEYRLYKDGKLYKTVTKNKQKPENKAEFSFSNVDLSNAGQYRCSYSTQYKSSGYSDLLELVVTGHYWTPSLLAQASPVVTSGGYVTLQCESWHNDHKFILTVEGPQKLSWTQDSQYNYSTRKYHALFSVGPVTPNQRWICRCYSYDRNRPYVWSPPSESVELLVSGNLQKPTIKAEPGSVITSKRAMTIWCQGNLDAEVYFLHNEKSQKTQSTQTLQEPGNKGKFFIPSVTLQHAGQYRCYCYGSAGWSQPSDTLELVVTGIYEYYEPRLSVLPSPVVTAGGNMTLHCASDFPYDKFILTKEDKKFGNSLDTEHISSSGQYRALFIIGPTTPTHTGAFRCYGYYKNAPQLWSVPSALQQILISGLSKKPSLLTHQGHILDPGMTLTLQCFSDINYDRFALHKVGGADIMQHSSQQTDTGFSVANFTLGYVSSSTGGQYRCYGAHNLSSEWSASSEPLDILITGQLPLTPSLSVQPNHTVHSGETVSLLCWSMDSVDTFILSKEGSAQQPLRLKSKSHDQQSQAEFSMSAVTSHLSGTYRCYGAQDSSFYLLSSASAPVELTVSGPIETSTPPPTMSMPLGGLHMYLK

[4] = molecular target: T4, ECD-His tagged human ILT2 haplotype PE01 (human, UniProt Q8NHL6, in part); assay: SPR, ILT2 ECD-His
T4 construct: also called Human ILT2 PE01 ECD; LILRB1/ILT2 PE01; not shown: His tag
Method: as §1

[5] = molecular target: T5, ECD-His tagged human ILT2 haplotype PE02 (human, UniProt Q8NHL6, in part); assay: SPR, ILT2 ECD-His
T5 construct: also called Human ILT2 PE02 ECD; not shown: His tag
Method: as §1

[6] = molecular target: T6, ECD-His tagged human ILT2 haplotype PE03 (human, UniProt Q8NHL6, in part); assay: SPR, ILT2 ECD-His
T6 construct: also called Human ILT2 PE03 ECD (Sino biological, 16014-H08H); not shown: His tag
Method: as §1

[7] = molecular target: T7, human ILT2 extracellular and transmembrane domains expressed on CHO cells (human, UniProt Q8NHL6, in part); assay: flow cytometry, blocking of PE HLA-B*07:02 pentamer on CHO cells with high human ILT2
T7 construct: domain: extracellular and transmembrane domains; which one is told under assay; also called CHO cells expressing human ILT2 (relatively low or relatively high level); CHO-ILT2 cells

[8] = molecular target: T7, human ILT2 extracellular and …; assay: flow cytometry, blocking of PE HLA-C*07:02 pentamer on CHO cells with high human ILT2

B1: BA252 (antibody, human IgG4 S228P, kappa)
heavy: QVQLVQSGAEVKKPGASVKVSCKASGYTFNRYYMHWVRQAPGQGLEWMGWINPYTGGTNYAQKFQGRVTMTRDTSISTAYMELSRLRSDDTAVYYCASKQPSSDYWGQGTLVTVSSASTKGPSVFPLAPCSRSTSESTAALGCLVKDYFPEPVTVSWNSGALTSGVHTFPAVLQSSGLYSLSSVVTVPSSSLGTKTYTCNVDHKPSNTKVDKRVESKYGPPCPPCPAPEFLGGPSVFLFPPKPKDTLMISRTPEVTCVVVDVSQEDPEVQFNWYVDGVEVHNAKTKPREEQFNSTYRVVSVLTVLHQDWLNGKEYKCKVSNKGLPSSIEKTISKAKGQPREPQVYTLPPSQEEMTKNQVSLTCLVKGFYPSDIAVEWESNGQPENNYKTTPPVLDSDGSFFLYSRLTVDKSRWQEGNVFSCSVMHEALHNHYTQKSLSLSLG
light: DIVMTQSPLSLPVTPGEPASISCRSSQSLLHSNTYNYLDWYLQKPGQSPQLLIYLGSNRASGVPDRFSGSGSGTDFTLKISRVEAEDVGVYYCLQASQAPWTFGQGTKVEIKRTVAAPSVFIFPPSDEQLKSGTASVVCLLNNFYPREAKVQWKVDNALQSGNSQESVTEQDSKDSTYSLSSTLTLSKADYEKHKVYACEVTHQGLSSPVTKSFNRGEC
[1]
  binding result: no binding
[2]
  binding result: no binding
[3]
  binding result: no binding
[4]
  Kd: 0.14 nM
  koff: 7.1e-05 s⁻¹
  kon: 520000 M⁻¹ s⁻¹
[5]
  Kd: 0.44 nM
  koff: 0.0002 s⁻¹
  kon: 460000 M⁻¹ s⁻¹
[6]
  Kd: 0.59 nM
  koff: 0.00025 s⁻¹
  kon: 420000 M⁻¹ s⁻¹
[7]
  IC50: 0.136 µg/mL
[8]
  IC50: 0.158 µg/mL
